Source: patent publication US20230374038A1, “MODULATORS OF CYSTIC FIBROSIS TRANSMEMBRANE CONDUCTANCE REGULATOR” (VERTEX PHARMACEUTICALS INCORPORATED, priority 2020, published 2023)

Protein sequences, listed by entry. Tags and fused reporters are not part of them. Chains listed by the source or under a name are the forms on record and can include a tag or linker.
UniProt P13569, with tags, fused parts or gaps DEL508-508: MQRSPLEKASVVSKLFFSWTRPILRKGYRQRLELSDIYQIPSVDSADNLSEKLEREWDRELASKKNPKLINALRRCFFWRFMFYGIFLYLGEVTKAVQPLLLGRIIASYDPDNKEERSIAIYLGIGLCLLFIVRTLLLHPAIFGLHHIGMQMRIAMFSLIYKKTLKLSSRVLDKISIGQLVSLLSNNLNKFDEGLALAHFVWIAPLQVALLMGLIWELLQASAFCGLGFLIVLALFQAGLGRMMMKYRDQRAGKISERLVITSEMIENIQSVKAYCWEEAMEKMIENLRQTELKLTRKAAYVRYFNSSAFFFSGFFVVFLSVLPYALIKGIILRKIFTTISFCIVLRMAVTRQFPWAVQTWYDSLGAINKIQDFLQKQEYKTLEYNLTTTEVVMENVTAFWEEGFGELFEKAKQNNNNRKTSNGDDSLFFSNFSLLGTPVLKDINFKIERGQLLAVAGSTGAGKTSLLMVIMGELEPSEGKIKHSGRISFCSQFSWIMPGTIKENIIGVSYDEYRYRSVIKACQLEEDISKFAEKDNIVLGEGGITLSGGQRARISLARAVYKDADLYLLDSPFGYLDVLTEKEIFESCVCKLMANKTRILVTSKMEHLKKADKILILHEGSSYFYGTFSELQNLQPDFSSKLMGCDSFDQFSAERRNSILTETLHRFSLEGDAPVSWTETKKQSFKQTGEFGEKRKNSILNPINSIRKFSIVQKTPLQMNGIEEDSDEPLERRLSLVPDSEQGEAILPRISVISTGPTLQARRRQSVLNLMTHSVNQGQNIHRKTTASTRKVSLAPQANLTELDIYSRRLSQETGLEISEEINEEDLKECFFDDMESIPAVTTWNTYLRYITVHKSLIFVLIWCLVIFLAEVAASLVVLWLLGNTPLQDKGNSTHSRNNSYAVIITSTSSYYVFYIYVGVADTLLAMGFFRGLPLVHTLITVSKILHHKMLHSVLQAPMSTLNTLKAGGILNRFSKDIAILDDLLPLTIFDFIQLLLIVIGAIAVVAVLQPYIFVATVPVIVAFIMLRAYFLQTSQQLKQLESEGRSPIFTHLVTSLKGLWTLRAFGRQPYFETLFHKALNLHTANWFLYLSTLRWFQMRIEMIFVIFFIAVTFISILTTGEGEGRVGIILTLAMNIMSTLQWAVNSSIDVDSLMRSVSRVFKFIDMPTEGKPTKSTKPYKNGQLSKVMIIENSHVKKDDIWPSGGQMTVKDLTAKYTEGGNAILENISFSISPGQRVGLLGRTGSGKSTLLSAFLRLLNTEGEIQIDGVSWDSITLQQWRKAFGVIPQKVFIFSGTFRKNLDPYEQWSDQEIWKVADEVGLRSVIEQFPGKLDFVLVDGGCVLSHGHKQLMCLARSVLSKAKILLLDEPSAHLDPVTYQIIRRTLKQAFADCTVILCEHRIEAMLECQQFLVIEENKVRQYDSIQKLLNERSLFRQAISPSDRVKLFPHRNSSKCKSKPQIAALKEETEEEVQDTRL

Target: CFTR (Homo sapiens, UniProt P13569, DEL508-508)
Assay: HBE Assay: Ussing chamber assay of CFTR-mediated short-circuit currents in F508del/MF-HBE cells with 1 μM Ivacaftor
Method: Ussing chamber experiments were performed using human bronchial epithelial (HBE) cells derived from CF subjects heterozygous for F508del and a minimal function CFTR mutation (F508del/MF-HBE) and cultured as previously described (Neuberger T, Burton B, Clark H, Van Goor F Methods Mol Biol 2011:741:39-54). After four days the apical media was removed, and the cells were grown at an air liquid interface for >14 days prior to use.
(§1) To isolate the CFTR-mediated short-circuit (ISC) current, F508del/MF-HBE grown on Costar® Snapwell™ cell culture inserts were mounted in an Ussing chamber and the transepithelial ISC was measured under voltage-clamp recording conditions (Vhold=0 mV) at 37° C. […] The CFTR-mediated ISC (μA/cm^2) for each condition was determined from the peak forskolin response to the steady-state current following inhibition.
The activity of the CFTR corrector compounds on the CFTR-mediated ISC was determined in Ussing chamber studies as described above. […]
as §1

HBE Max Activity (18-24 hours, 20% human serum): +++ (+++ is >600%) | EC50 (read-out: HBE EC50, 18-24 hours, 20% human serum): < 1000 nM
Structure (SMILES): Cc1cccc(CC2CCCCC2)c1-c1nc2nc(c1C)OC[C@@H](CC(C)C)N(Cc1ccc(N3CCOCC3)cn1)C(=O)c1cccc(c1)S(=O)(=O)N2
